{"source": "paper PMC9726709", "about": "“Fluorescently tagged nanobodies and NanoBRET to study ligand-binding and agonist-induced conformational changes of full-length EGFR expressed in living cells” (Frontiers in Immunology, 2022)", "biological_target": "N-terminal NanoLuc-tagged EGFR (NLuc-EGFR) (human) (UniProt P00533)", "test": "FRET or BRET; NanoBRET saturation binding on living HEK293 cells stably expressing NLuc-EGFR; fluorescent EGF 0-100 nM, with or without 100 nM unlabelled EGF (non-specific binding); 30 min at 37 °C; HBSS with 0.2% BSA, pH 7.45"}
{"substance": "Epidermal Growth Factor fluorescently labelled with Alexa Fluor 647 (ligand)", "values": [{"measurement": "Kd", "result": 3.49, "unit": "nM"}]}
